Results published in paper PMC10086585.

Chains of the proteins cited; added tags and fusions are not shown. A line that says so, or that is headed by a name, gives the form on record, which may keep a tag or linker.
mouse laminin‐I (mouse), one chain, as listed by the source, chain 2 of 3: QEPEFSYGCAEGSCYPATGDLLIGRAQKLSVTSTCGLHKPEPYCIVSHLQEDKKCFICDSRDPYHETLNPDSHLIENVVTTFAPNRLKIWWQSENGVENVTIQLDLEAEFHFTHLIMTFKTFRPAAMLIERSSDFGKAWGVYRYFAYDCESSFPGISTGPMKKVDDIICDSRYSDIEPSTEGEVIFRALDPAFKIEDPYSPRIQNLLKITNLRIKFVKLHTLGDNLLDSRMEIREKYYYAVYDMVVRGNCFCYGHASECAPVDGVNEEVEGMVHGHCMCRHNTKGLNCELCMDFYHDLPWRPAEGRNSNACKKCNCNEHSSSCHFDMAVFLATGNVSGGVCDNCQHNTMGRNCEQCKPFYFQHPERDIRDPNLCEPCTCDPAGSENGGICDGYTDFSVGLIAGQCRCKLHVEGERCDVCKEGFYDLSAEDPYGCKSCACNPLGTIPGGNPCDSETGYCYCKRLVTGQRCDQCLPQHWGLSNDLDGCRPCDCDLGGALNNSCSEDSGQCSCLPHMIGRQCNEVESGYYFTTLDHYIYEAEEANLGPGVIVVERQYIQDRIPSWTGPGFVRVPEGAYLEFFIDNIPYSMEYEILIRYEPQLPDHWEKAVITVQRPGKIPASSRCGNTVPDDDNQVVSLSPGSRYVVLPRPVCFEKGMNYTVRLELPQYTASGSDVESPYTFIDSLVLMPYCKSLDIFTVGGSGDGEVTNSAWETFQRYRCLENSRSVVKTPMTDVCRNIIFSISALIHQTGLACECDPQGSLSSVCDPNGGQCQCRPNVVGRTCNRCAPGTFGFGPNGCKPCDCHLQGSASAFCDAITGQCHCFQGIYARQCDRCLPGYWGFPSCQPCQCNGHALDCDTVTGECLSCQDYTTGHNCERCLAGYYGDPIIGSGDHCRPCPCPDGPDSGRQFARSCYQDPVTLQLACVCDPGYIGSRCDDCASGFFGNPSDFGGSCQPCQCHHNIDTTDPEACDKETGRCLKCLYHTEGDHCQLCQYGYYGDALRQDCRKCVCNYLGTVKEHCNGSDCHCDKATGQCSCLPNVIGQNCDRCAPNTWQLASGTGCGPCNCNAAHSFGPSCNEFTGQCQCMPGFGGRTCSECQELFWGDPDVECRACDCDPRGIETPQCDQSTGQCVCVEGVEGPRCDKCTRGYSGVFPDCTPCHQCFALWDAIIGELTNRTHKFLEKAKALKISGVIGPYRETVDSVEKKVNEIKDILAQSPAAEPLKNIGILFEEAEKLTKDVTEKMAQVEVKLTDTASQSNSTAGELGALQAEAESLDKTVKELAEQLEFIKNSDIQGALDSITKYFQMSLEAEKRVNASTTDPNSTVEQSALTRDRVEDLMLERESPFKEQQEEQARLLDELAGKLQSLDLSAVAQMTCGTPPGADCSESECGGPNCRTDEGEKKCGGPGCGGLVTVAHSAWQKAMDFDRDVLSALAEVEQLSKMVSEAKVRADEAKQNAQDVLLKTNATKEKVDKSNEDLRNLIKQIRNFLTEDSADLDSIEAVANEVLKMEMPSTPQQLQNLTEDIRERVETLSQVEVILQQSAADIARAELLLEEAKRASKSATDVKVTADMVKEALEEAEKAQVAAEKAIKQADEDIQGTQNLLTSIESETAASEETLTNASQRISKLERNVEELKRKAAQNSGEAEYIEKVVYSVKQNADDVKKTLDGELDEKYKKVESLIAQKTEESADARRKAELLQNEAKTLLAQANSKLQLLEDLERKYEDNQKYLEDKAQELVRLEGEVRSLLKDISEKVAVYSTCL
mouse laminin‐I (mouse), one chain, as listed by the source, chain 3 of 3: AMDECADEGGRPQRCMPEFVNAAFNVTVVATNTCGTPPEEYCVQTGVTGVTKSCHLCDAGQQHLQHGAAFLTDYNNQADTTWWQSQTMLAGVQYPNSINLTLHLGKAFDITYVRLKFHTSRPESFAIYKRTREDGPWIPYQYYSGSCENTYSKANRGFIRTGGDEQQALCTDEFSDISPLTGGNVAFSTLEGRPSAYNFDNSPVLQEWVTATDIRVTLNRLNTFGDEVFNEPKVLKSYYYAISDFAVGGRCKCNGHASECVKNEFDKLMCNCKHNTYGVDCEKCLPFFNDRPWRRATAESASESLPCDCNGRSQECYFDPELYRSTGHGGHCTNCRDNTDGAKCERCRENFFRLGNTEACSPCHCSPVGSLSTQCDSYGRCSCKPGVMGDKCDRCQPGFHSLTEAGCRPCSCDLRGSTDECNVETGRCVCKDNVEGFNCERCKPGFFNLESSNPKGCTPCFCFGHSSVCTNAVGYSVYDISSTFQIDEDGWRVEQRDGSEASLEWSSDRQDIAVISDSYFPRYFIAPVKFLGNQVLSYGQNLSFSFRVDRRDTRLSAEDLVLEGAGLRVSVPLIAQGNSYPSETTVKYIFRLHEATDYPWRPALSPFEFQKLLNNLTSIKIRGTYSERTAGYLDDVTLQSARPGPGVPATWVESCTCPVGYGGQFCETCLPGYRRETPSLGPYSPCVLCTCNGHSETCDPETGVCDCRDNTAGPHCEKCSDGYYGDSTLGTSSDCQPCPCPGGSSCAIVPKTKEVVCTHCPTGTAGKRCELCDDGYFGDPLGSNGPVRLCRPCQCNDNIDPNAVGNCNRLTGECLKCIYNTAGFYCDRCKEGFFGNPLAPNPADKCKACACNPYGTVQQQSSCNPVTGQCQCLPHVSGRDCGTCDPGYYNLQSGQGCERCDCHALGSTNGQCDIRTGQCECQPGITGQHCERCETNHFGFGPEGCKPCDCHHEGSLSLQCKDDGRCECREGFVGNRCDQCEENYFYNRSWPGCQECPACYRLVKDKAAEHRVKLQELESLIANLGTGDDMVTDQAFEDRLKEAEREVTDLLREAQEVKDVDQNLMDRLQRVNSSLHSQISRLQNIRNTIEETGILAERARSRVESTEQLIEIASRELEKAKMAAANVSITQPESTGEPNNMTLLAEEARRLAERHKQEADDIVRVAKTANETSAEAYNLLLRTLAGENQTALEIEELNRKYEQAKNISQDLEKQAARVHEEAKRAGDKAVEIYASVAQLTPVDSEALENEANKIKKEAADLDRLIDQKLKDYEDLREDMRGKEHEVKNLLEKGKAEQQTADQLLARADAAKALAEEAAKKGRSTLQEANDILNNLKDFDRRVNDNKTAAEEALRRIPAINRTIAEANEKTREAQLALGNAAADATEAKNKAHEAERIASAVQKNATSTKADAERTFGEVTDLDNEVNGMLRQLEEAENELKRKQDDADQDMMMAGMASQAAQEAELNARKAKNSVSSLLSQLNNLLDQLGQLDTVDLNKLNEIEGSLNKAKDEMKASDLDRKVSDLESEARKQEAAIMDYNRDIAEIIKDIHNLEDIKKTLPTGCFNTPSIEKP
mouse laminin‐I (mouse), one chain, as listed by the source, chain 1 of 3: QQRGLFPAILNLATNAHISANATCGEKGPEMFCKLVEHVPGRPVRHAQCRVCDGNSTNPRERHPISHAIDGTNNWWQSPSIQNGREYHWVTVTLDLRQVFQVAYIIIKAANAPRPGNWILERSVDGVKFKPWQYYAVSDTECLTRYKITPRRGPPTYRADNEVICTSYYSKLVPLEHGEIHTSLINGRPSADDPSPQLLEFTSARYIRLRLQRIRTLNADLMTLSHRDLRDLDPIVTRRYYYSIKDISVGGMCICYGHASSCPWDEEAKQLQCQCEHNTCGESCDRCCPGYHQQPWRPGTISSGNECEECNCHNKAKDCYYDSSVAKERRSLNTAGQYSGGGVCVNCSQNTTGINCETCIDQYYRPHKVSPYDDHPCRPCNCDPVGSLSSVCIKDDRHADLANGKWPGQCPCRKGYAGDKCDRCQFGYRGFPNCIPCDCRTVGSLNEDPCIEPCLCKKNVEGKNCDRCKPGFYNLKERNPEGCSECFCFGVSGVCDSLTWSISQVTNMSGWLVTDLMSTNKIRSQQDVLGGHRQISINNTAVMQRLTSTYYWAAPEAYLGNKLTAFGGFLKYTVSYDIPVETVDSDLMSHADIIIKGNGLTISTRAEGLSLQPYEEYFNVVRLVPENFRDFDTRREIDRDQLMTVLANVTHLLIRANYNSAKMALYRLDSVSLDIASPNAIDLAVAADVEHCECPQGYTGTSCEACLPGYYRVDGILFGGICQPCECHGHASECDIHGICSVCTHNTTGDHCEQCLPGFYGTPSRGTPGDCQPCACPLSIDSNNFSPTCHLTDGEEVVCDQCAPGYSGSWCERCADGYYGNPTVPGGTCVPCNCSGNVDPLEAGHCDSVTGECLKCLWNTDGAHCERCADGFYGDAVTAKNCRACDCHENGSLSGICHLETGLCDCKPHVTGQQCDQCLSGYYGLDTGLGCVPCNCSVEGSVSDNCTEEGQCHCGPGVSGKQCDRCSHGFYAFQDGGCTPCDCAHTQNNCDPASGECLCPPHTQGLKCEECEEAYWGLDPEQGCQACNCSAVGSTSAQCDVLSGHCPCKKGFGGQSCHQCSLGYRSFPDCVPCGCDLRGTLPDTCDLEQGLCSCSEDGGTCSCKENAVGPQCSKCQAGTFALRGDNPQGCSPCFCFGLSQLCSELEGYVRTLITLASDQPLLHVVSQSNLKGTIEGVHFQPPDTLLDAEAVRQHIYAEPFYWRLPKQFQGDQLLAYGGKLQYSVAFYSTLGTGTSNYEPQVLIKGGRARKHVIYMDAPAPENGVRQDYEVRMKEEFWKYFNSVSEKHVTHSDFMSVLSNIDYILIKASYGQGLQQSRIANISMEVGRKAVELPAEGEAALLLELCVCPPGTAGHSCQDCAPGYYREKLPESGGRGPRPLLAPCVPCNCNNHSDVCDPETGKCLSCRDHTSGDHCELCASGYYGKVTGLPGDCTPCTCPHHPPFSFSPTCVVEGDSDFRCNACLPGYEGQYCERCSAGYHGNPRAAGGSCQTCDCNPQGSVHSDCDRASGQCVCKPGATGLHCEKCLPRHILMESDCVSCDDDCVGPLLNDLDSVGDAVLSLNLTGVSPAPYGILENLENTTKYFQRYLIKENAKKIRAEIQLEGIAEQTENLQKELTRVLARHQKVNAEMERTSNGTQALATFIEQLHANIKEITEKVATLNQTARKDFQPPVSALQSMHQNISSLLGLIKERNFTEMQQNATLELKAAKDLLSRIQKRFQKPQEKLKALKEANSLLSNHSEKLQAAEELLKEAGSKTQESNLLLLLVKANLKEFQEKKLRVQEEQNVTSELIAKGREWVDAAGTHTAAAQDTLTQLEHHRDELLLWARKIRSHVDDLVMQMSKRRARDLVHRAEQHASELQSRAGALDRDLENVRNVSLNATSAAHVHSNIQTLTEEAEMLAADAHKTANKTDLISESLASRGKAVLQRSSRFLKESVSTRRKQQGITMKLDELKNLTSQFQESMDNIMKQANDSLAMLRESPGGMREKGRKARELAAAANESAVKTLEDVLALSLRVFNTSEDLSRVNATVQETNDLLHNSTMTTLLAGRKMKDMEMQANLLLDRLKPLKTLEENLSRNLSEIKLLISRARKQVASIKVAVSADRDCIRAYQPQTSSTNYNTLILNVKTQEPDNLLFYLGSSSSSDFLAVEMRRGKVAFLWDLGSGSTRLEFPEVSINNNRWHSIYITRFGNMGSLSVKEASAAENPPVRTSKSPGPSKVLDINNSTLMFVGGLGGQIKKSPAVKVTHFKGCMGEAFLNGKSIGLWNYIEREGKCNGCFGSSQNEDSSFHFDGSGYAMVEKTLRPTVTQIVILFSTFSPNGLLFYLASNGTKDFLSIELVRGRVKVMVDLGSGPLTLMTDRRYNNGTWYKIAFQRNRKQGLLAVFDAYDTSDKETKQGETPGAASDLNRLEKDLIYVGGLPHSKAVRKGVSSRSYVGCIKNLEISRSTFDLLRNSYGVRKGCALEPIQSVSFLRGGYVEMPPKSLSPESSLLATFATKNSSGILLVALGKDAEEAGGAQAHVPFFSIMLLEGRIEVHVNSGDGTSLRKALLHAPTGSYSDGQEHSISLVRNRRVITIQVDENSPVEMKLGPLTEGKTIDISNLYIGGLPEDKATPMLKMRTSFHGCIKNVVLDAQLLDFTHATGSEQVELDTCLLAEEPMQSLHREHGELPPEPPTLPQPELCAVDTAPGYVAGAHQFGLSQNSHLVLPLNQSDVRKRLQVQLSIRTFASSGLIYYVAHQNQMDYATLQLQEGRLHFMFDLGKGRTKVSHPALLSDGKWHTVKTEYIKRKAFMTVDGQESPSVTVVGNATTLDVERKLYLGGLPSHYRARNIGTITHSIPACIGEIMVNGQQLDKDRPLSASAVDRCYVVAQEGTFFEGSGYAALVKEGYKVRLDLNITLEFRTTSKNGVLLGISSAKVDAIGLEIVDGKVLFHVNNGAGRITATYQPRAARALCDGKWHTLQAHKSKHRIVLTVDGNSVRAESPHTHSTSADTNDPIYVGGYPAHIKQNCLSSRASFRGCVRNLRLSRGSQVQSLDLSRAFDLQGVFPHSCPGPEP

Molecular target: mouse laminin‐I (mouse)
Experiment: BLI
Details: ligand; chains chain

- Kd: 2.95 nM
Substance: recombinant human netrin‐1 (R&D), on HIS1K biosensors (from UniProt O95631 25-604)
